# Measurements taken from ChEMBL document CHEMBL2057199, “Development of novel M1 antagonist scaffolds through the continued optimization of the MLPCN probe ML012” (Bioorg Med Chem Lett, 2012).
# The chains behind the UniProt entries cited, without tags or fusion partners. Where a name states a change or a piece, a line headed by the entry shows the natural chain unless it says otherwise.
# UniProt P11229: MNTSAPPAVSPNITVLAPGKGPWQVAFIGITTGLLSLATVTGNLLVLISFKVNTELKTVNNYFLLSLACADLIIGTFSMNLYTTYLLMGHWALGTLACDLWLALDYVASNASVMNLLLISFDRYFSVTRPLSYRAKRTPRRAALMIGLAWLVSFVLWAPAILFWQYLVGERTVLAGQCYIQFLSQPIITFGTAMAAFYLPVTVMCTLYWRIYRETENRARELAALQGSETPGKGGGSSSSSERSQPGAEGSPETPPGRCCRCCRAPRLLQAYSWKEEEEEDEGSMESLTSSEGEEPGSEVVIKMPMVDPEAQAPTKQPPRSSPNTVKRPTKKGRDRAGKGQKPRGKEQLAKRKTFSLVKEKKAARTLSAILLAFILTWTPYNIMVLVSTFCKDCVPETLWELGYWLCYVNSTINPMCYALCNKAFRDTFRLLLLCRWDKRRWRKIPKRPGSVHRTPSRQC
# Molecular target: Muscarinic acetylcholine receptor M1 (Homo sapiens, UniProt P11229)
# Assay: Antagonist activity at human muscarinic M1 receptor expressed in CHO cells assessed as inhibition of acetylcholine-induced calcium mobilization by fluorescence analysis
# Type: functional, cell-based
row,Compound,IC50 [µM]
1,O=C(C1CN(S(=O)(=O)c2cccc(Cl)c2F)C1)N1CCN(c2ccncc2)CC1,2.8
2,O=C(C1CN(S(=O)(=O)c2cccc(Cl)c2)C1)N1CCN(c2ccncc2)CC1,4.1
3,O=C(C1CN(S(=O)(=O)c2cccc3ncccc23)C1)N1CCN(c2ccncc2)CC1,1.8
4,O=C(C1CN(S(=O)(=O)c2ccc3ncccc3c2)C1)N1CCN(c2ccncc2)CC1,1.7
5,O=C(C1CN(S(=O)(=O)c2ccc3c(c2)OCO3)C1)N1CCN(c2ccncc2)CC1,0.83
6,Cc1cc(S(=O)(=O)N2CC(C(=O)N3CCN(c4ccncc4)CC3)C2)cnc1Cl,0.31
7,O=C(C1CN(S(=O)(=O)c2cccc3cnccc23)C1)N1CCN(c2ccncc2)CC1,0.11
8,Cc1cc2c(S(=O)(=O)N3CC(C(=O)N4CCN(c5ccncc5)CC4)C3)cccc2cn1,2.2
9,O=C(C1CN(S(=O)(=O)c2cccc3c(Cl)nc(Cl)cc23)C1)N1CCN(c2ccncc2)CC1,5.5
10,O=C(C1CN(S(=O)(=O)c2cccc3cnccc23)C1)N1CCN(c2ccncn2)CC1,1.5
11,Cc1cc2c(S(=O)(=O)N3CC(C(=O)N4CC5CN(c6ccncc6)CC5C4)C3)cccc2cn1 (stereo not drawn),2.7
12,O=C(C1CN(S(=O)(=O)c2cccc3nsnc23)C1)N1CC2CN(c3ccncc3)CC2C1 (stereo not drawn),2.8
13,O=C(C1CN(S(=O)(=O)c2cccc(Cl)c2Cl)C1)N1CC2CN(c3ccncc3)CC2C1 (stereo not drawn),1.5
